# Experimental data published in PMC8071193, “Dual-Target Compounds against Type 2 Diabetes Mellitus: Proof of Concept for Sodium Dependent Glucose Transporter (SGLT) and Glycogen Phosphorylase (GP) Inhibitors” (Pharmaceuticals, 2021).
# Biological target: T1, SGLT2 (Homo sapiens, UniProt P31639)
# T1 construct: host or cells: TSA201 (Human Embryonal Kidney) cells, lentiviral transduction, puromycin selection
# T1 sequence (P31639 1-672): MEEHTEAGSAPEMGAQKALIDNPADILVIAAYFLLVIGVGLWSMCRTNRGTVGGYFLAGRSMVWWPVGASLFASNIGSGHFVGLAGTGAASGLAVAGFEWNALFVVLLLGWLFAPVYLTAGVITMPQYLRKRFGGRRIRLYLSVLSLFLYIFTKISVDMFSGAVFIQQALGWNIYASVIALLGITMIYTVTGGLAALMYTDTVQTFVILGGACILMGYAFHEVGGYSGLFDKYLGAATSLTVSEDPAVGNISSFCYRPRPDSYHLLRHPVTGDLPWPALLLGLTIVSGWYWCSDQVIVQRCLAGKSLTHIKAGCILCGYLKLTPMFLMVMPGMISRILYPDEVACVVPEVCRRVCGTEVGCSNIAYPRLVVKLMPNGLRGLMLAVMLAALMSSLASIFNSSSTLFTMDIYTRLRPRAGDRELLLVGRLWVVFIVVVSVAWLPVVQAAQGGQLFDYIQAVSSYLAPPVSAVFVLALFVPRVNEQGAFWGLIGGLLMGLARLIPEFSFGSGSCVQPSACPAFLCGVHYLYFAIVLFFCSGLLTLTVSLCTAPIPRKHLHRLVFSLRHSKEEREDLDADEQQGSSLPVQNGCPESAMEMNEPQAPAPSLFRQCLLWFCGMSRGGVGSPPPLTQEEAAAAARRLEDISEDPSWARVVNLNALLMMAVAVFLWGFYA
# Assay: SGLT2 inhibition, 2-NBDG glucose uptake in SGLT2-overexpressing TSA201 cells
# Assay type: cell-based
# Details: SGLT2-transfected TSA201 cells, presence vs absence of phlorizin, p < 0.05
structure (smiles),measurement,value
"O=C(CCc1ccc(O)cc1)c1c(O)cc(O)cc1O[C@@H]1O[C@H](CO)[C@@H](O)[C@H](O)[C@H]1O [compound 1, phlorizin, reference compound]",glucose uptake (2-NBDG),significantly decreased glucose uptake
